We go through one compound from patent publication US20260042755A1, “GPR6 INVERSE AGONISTS” (MapLight Therapeutics, Inc., priority 2022, published 2026).

Protein sequences, listed by entry. Tags and fused reporters are not part of them.
UniProt P46095, whole entry: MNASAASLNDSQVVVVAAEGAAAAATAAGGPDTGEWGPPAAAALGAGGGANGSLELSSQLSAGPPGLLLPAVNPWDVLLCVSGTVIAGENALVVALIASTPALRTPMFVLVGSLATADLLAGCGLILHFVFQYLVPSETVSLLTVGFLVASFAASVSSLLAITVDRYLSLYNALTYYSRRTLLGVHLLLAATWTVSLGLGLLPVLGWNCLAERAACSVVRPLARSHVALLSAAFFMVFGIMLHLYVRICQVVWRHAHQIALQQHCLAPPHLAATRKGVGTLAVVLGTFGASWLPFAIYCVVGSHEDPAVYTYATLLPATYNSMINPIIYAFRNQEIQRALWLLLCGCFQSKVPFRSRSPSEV
UniProt P46089, whole entry: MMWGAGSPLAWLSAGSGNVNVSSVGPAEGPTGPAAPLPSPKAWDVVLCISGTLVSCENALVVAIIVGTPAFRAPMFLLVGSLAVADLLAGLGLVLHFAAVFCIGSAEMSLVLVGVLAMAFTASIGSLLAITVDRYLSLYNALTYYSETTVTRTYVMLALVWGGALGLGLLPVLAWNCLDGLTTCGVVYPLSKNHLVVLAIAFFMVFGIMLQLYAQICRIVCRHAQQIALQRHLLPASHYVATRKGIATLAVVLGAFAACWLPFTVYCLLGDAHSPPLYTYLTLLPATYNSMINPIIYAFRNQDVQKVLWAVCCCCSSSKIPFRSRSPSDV

As a reminder, the IC50 is the concentration needed to halve the response being measured.

The target of one test is GPR6 (Homo sapiens, UniProt P46095). Nature of the test: GPR6 antagonist functional cAMP assay (LANCE Ultra cAMP TR-FRET, CHO cells stably expressing GPR6). The settings on record: read-out: GPR6 IC50. The method, then:
(§1) Example 56. GPR6 and GPR3 Antagonist Functional cAMP Assay
(§2) CHO cells stably expressing GPR6 or GPR3 receptors were dissociated from cell culture flasks and incubated for 2 h at 37° C. in a 10 cm dish in a humidified incubator. Cells were dissociated, counted to have 1e6 cells/mL (4.5e6 cells needed/384-well plate), washed once in starved media, than in D-PBS and finally suspended in assay buffer (Krebs-Ringer Bicarbonate Buffer with 1800 mg/L glucose, without calcium chloride and sodium bicarbonate (Sigma) in the presence of 0.1% BSA and 150 μM of Ro 20-1724 Phosphodiesterase inhibitor).
(§3) Cells in suspension from above were plated in 384-well white Optiplate (PerkinElmer) at 10,000 cells/well/10 μl, briefly centrifuged prior direct addition of compounds ([…]) in 10 mM DMSO using a Tecan D300e Digital Dispenser, final DMSO in each well was normalized to 0.1%. […]
(§4) To measure cAMP levels, LANCE® Ultra cAMP assay (Perkin Elmer), a homogeneous time-resolved fluorescence resonance energy transfer (TR-FRET) immunoassay was used following manufacturer's recommendations. Plates were shaken for 1 h at room temperature before reading on a Tecan InfiniteF200Pro multi-mode plate reader using standard FRET settings (Excitation 340 nm, Emission at 615 nm). FRET values were reported as readings obtained at 665 nm. […]
A general note: Changes in cAMP serve as a functional read-out for many G protein-coupled receptors.

The target in the next test is GPR3 (Homo sapiens, UniProt P46089). Nature of the test: GPR3 antagonist functional cAMP assay (LANCE Ultra cAMP TR-FRET, CHO cells stably expressing GPR3). The following applies: read-out: GPR3 IC50. How it is done:
as §1, §2, §3, §4

Some results are limits rather than exact numbers.

With `CCn1cc(-c2nc3cc(C(O)C(C)(C)O)ncc3nc2N2CCN(Cc3ccc(F)cc3F)CC2)cn1` (single isomer, unassigned), the 50% inhibitory concentration (IC50) is less than 100 nM at GPR6 and 100 to 1000 nM on GPR3.
